Laboratory results taken from US20030175745A1, “Peptides with growth inhibitory action” (priority 2001, published 2003).

System: NIH3T3-PDGF-ββ cells
Experiment: Growth assay with NIH3T3-PDGF-ββ cells, cell number by PicoGreen DNA
Type: cell-based
Experimental: NIH 3T3 cells transfected with PDGF-ββ (a stable cell line) were obtained from Mount Sinai School of Medicine. These cells overexpress PDGF-ββ and are activated via the PDGF-R in an autocrine fashion. Cells were grown at 37° C. in Dulbecco's Modified Eagles Medium (high glucose) (DMEM) with 10% heat-inactivated fetal calf serum (FCS) with 100 units or μg/ml penicillin/streptomycin with 750 μg/ml G418 sulfate (Geneticin) selection. Cells were incubated in an atmosphere of 5% CO2, and cultures were fed twice weekly. For subcultivation, cells were allowed to attain confluence and washed twice with PBS or Hank's balanced salt solution (minus Ca^++ and Mg^++) before addition of a trypsin/EDTA solution to dislodge the cells. Cells were split anywhere from ¼ to 1/12 into a sterile T-75 Flask depending on the time desired until confluence. […]
Cell number was assessed by measurement of total cellular double-stranded DNA using the PicoGreen Assay Kit (Molecular Probes, Eugene, Oreg., USA, lot #6405-1). […] Plates were read after five minutes in a fluorimeter (irradiated at an excitation wavelength of 485 nm). Fluorescence emission was measured at 530 nm using a CytoFluor Series 4000 (PerSeptive Biosystems, Framingham, Mass.). […] For analysis, DNA absorbance/emission was compared to the absorbance/emission shown by a standard curve of DNA.

## NCCCC[C@H](NC(=O)[C@H](CCCCN)NC(=O)[C@H](CCCCN)NC(=O)[C@@H](N)CCCCN)C(=O)O [KKKK]
  growth inhibition in the initial screen of the library: inhibiting growth
